For this assay, the system named is human prostatic carcinoma cells, PC-3 (subcutaneous xenografts). Briefly: subcutaneous PC-3 xenografts in nude mice, tumor volume. It is filed as in vivo, NCr athymic nude mice. The following applies: tumors expanded to 100 mm^3 before treatment; treatment days 13-31; 120 mg/kg BN-50730 and/or 1,000 U IFN-2a; p<0.001, F-test. The procedure: Pathogen-free 4 to 6 week-old male NCr athymic nude mice (Taconic, Germantown, N.Y.) were housed in sterilized, filter-topped cages kept in laminar flow isolators (Forma Scientific, Marietta, Ohio), and fed autoclaved food and water ad libitum. Four animals were housed in each cage. Mice were acclimated to the vivarium for one week prior to their use in study protocols. All procedures involving the mice were performed under sterile conditions in a laminar flow hood (Forma Scientific). All studies were approved by the institutional animal care and use committee.
Human PC-3 prostate cancer cells (2×10^6 cells; American Type Culture Collection CRL-1435) were inoculated subcutanteously into the flanks of nude mice in 0.1 ml HBSS (Hank's balanced salt solution) (Life Technologies). […] For tumors implanted subcutaneously, tumors were measured in a blind fashion with dial calipers, and the volume was calculated using the formula ½*π(W*L*H).
Potential anti-angiogenic and anti-tumor effects of the PAF antagonist BN-50730 were tested on human tumor xenografts in the NCr athymic nude mice. […] Animals were sacrificed at day 13, 17, 21 and 28, and the volumes of the subcutaneous tumors were measured using dial calipers and the formula ½*π(W*L*H) as described in Example 1. […]

One substance from patent US6979682B2, “Platelet-activating factor antagonist inhibition of angiogenesis and tumor growth induced by basic fibroblast” (Board of Supervisors of Louisiana State University and …, priority 2001, dated 2005) can be followed below.

For “IFN-2a: FDA human-approved antiangiogenic compound, human IFN-2a (Sigma Chemical Co.) [reference compound]”, the “tumor size of established PC-3 xenografts vs control animals” value was “significantly smaller tumors”.
